Ab-14 heavy chain CDR variants: yeast mating affinities

Reference: Engelhart et al. 2022, doi:10.1038/s41597-022-01779-4. File: FLAb, binding data.

All variants were tested on one target, the spike HR2 peptide PDVDLGDISGINAS (SARS-CoV-2).

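The parent was found by panning a naive human phage display library on the peptide. In library AAYL49, one, two or three CDR residues were substituted; doubles and triples were drawn at random. In AlphaSeq, yeast of one mating type display the scFv and yeast of the other type display the target. The frequency of each diploid, read from paired DNA barcodes, reflects how well the two displayed proteins bind. Each replicate has its own calibration line, from reference interactions of the BCL2 family. Mating was done three times.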

Parent scFv Ab-14: VH joined to VL by three GGGGS repeats. Changes lie in the heavy chain CDRs alone.
VH: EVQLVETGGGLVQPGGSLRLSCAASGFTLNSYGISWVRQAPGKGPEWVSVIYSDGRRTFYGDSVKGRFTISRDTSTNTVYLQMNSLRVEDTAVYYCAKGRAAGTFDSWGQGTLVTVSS
VL: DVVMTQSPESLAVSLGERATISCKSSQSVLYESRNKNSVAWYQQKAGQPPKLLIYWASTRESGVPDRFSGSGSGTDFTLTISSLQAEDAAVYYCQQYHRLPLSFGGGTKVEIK

Positions count from residue 1 of the parent VH; N30M puts M in place of N. This list gathers variants with a substitution at T58 (VH, numbered from residue 1). The Kd shown is the geometric mean over detected replicates; a lower Kd is a better binder. "no signal" means that the variant was in the library but no mating with the target was seen in any replicate; the authors take this as a sign of poor binding, and no number exists. In this assay the parent's reference entry averaged 4.4 nM; its copy inside this library read 13 µM (one replicate of three). Three control strains display no target. For library AAYL49, 15% of the pairings with them gave a signal, with a median of 11 µM and one signal in twenty below 680 nM, so weak values seen in few replicates may be background.

For N30M R57Q T58P, the assay gave 1.1 µM (1 of 3 replicates). For T58F F105M, the assay gave 2.4 µM (2 of 3 replicates). The variant D54N T58I G61P gave 780 nM (1 of 3 replicates). The variant G55R T58H A102H showed no signal (0 of 3 replicates). The variant F27L S53M T58V showed no signal (0 of 3 replicates). The variant S31C T58L F105C gave no signal (0 of 3 replicates). For I34L T58W, the assay gave no signal (0 of 3 replicates). For S31E V50N T58N, the assay gave no signal (0 of 3 replicates).

With T58K Y60W T104E the result was 6.5 µM (1 of 3 replicates). The variant S53R D54H T58D gave no signal (0 of 3 replicates). With T58Y G103K the result was 420 µM (1 of 3 replicates). For D54A T58C G61Y, the assay gave no signal (0 of 3 replicates). With T58C F59I G99N the result was 130 nM (3 of 3 replicates). With T28M T58L Y60E the result was no signal (0 of 3 replicates). The variant L29T T58Q D62N gave no signal (0 of 3 replicates). The variant G55K T58D G61K gave 4.7 µM (2 of 3 replicates).

The variant T58I V64A A102T showed 190 nM (3 of 3 replicates). The variant T58Q G61F F105I gave no signal (0 of 3 replicates). For G26A N30P T58H, the assay gave no signal (0 of 3 replicates). The variant R56K T58A F59I gave 1.2 µM (2 of 3 replicates). The variant T58H F59M D106T gave no signal (0 of 3 replicates). The variant I51R T58I R100Q showed no signal (0 of 3 replicates). The variant F27D T58D T104N gave no signal (0 of 3 replicates). The variant D54V T58F gave 17 µM (1 of 3 replicates).

For T58V S63Y, the assay gave 120 µM (1 of 3 replicates). The variant G26E S35F T58S gave 10 µM (1 of 3 replicates). For F27Q D54I T58I, the assay gave 31 µM (3 of 3 replicates). With T58V D106A the result was 4.0 µM (1 of 3 replicates). The variant T58M F59R S63R showed 18 µM (1 of 3 replicates). The variant T58Y V64D showed 86 µM (1 of 3 replicates). For N30Y S53Y T58E, the assay gave 14 µM (1 of 3 replicates). The variant N30R T58G gave no signal (0 of 3 replicates).

The variant T58D V64R T104F showed 39 µM (2 of 3 replicates). The variant F27H T58P K65N gave no signal (0 of 3 replicates). The variant S35C T58L S107W showed no signal (0 of 3 replicates). With T58G F59D the result was no signal (0 of 3 replicates). For F27T S35R T58F, the assay gave 2.6 µM (1 of 3 replicates). With T58V G99S the result was 17 nM (3 of 3 replicates). For G26M T58W S63Y, the assay gave no signal (0 of 3 replicates). The variant T58I D62G G99V gave no signal (0 of 3 replicates).

With L29H T58V F105Y the result was 460 µM (1 of 3 replicates). With Y52C G55Y T58V the result was no signal (0 of 3 replicates). The variant T58G G99V D106A showed 150 µM (1 of 3 replicates). The variant V50D Y52N T58F gave 6.0 µM (1 of 3 replicates). For S35A T58N S107L, the assay gave 44 µM (2 of 3 replicates). The variant T28L L29H T58H gave no signal (0 of 3 replicates). The variant S35P T58V D106P showed 5.3 µM (1 of 3 replicates). With R56I T58M the result was 48 nM (3 of 3 replicates).

The variant G26D T58E D62T gave 42 µM (3 of 3 replicates). For T28R S31T T58E, the assay gave 40 µM (1 of 3 replicates).

The first 5 entries again:

changes	Kd (apparent)	replicates with signal
N30M R57Q T58P	1.1 µM	1/3
T58F F105M	2.4 µM	2/3
D54N T58I G61P	780 nM	1/3
G55R T58H A102H	no signal	0/3
F27L S53M T58V	no signal	0/3